High-throughput results as filed in PubChem.
Rows were chosen to be rich in hits. Some 0.94% of all compounds tested hit in one or more screens of this group.
p-CIP stab down – compounds decreasing mouse p/CIP protein stability; F442A p/CIP-EGFP cells, EGFP fluorescence, 16 h; decrease of EGFP signal, % at 10 µM; 290,000 tested, 0.01% active; AID 1984; Q05BA5;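 active means EGFP signal decrease of at least 30% at 10 µM or well 3 SD below plate mean, unless failing retest; inactive means the rest, including hits failing retest or dose response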
PKA-R2B activ – activators of human PKA-R2B complex; 340,000 tested, 0.079% active; P22694+P31323; PKA-R2B holoenzyme dissociation, Cy5-IP20 fluorescence polarization; R2B truncated from residue 108, S112A mutant; 0% DMSO only, 100% 113 µM cGMP; activation, % at 11.4 µM;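 active means activation above a cutoff set at the mean over all compounds plus 3 SD, cut at about 18% in these data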;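 further: higher means more holoenzyme dissociation and a rise in polarization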
ABCB6 inh 2 – blocks the human ABCB6 transporter | K562-ABCB6 porphyrin accumulation, flow cytometry, 1 h; active compounds read low | fluorescence ratio to DMSO, % at 10 µM | 360,000 tested, 0.19% active;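 active means fluorescence ratio to DMSO below 75%, the collection mean minus 3 SD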;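 further: signal is porphyrin accumulated inside mitochondria; 100% equals median channel fluorescence of DMSO control wells; lower ratio means ABCB6 inhibition with less porphyrin fluorescence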
UUG fidelity – yeast start codon fidelity modulation; AID 602363; activity score, % at 18.7 µM; S. cerevisiae UUG-firefly luciferase reporter, luminescence/redox ratio; 0.13% of 350,000 active;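 active means replicate mean at a twofold rise or more, about +100% in these data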;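 further: firefly luciferase made from a UUG start codon reports start codon fidelity; reporter light over untreated wells divided by growth signal over untreated wells; some hits fall short of that in this replicate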
PKA-R1A activ – activates the PKA-R1A holoenzyme complex | PKA-R1A dissociation, Cy5-IP20 fluorescence polarization; scaled: DMSO 0%, 113 µM cGMP 100% | activation, % at 11.4 µM | 340,000 tested, 0.083% active;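 active means percent activation above the mean of all tested compounds plus 3 SD, cut at about 19% in these data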;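 further: higher means more PKAc released from R1A so a rise in polarization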
Exocytosis inh – lytic granule exocytosis inhibition. TALL-104 LAMP-1 surface exposure, flow cytometry; cells stimulated with thapsigargin and PMA. inhibition, % at 10 µM. 360,000 tested, 0.66% active. AID 651702;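 active means inhibition above about 55%, limit read from the data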
Exocytosis CP01 – blocks lytic granule exocytosis. shares compounds with Exocytosis inh. TALL-104 cells, LAMP-1 externalization, flow cytometry; stimulated with PMA plus thapsigargin. inhibition, % at 10 µM. 1,500 tested, 11% active. AID 651954; in the data active means inhibition above about 60%;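 further: 0% = stimulated vehicle wells and 100% = unstimulated wells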
Starred values were filed as active, the others as inactive; . = no result.

Labels used below – A = p-CIP stab down; B = PKA-R2B activ; C = ABCB6 inh 2; D = UUG fidelity; E = PKA-R1A activ; F = Exocytosis inh; G = Exocytosis CP01
> Cc1ccccc1S(=O)(=O)N1CCCCN2[C@H](CO)[C@H](c3ccc(-c4cncnc4)cc3)[C@@H]2C1
  A: . | B: . | C: . | D: 15 | E: . | F: . | G: .
> COc1ccc(NC(=O)Nc2ccc3c(c2)CC(=O)N([C@H](C)CO)C[C@@H](C)[C@@H](CN(C)C(=O)Nc2ccc(F)cc2)O3)cc1
  A: . | B: . | C: . | D: 15 | E: . | F: . | G: .
> Cc1cccn2c(=O)c3cc(C(=O)NC4CCCCC4)c(=N)n(Cc4ccc(F)cc4)c3nc12
  A: -8 | B: -10 | C: 97 | D: -7 | E: -8 | F: 70* | G: 40
> Cc1cccn2c(=O)c3cc(C(=O)NC4CCCC4)c(=N)n(CC4CCCO4)c3nc12 (stereo not drawn)
  A: 3 | B: 6 | C: 95 | D: 15 | E: 8 | F: 11 | G: .
> O=C(NCC[C@@H]1CC[C@@H](NC(=O)C2CCC2)[C@@H](CO)O1)c1cnccn1
  A: . | B: . | C: . | D: -15 | E: . | F: . | G: .
> O=[N+]([O-])c1ccc(N2CCN(CC3CCCCC3)CC2)cc1
  A: 4 | B: 5 | C: 98 | D: -23 | E: -6 | F: 63* | G: -4
> Cc1ccc(CN2C(=O)c3ccccc3NC2c2cc(Br)ccc2O)cc1 (stereo not drawn)
  A: -9 | B: 2 | C: 99 | D: -5 | E: -4 | F: 74* | G: -2
> O=C1c2ccccc2NC(c2ccccc2)N1Cc1ccccc1 (stereo not drawn)
  A: . | B: -5 | C: 95 | D: 1 | E: 2 | F: 16 | G: .
> CO[C@@H]1CN(C)C(=O)c2ccc(NS(=O)(=O)c3cn(C)cn3)cc2OC[C@@H](C)N(C)C[C@H]1C
  A: . | B: . | C: . | D: -2 | E: . | F: . | G: .
> O=C(N[C@@H]1CC[C@@H](CCNS(=O)(=O)c2ccccc2)O[C@@H]1CO)c1cccnc1
  A: . | B: . | C: . | D: -16 | E: . | F: . | G: .

Going on with the list.
Labels used below – A = p-CIP stab down; B = PKA-R2B activ; C = ABCB6 inh 2; D = UUG fidelity; E = PKA-R1A activ; F = Exocytosis inh; G = Exocytosis CP01
> COc1ccc2cc(C(=O)C3CCCN(C(=O)c4cccnc4)C3)ccc2c1 (stereo not drawn)
  A: 1 | B: -16 | C: 92 | D: -19 | E: 0 | F: 9 | G: .
> COc1ccc(C(=O)C2CCCN(C(=O)c3cccnc3OC)C2)cc1F (stereo not drawn)
  A: -3 | B: 3 | C: 101 | D: -3 | E: 4 | F: 77* | G: -15
> O=C(c1ccc2ccccc2c1)C1CCCN(C(=O)c2cccnc2)C1 (stereo not drawn)
  A: -15 | B: 3 | C: 100 | D: -18 | E: -1 | F: 66* | G: -4
> Clc1ccc(CSc2nncn2-c2ccc3c(c2)OCCO3)cc1
  A: -1 | B: -12 | C: 104 | D: -13 | E: -6 | F: 72* | G: -12
> Clc1ccc(CSc2nncn2-c2ccccn2)cc1
  A: -8 | B: 0 | C: 99 | D: -18 | E: 0 | F: -1 | G: .
> O=C(Cc1cccs1)Nc1nc(-c2ccc(F)cc2F)cs1
  A: 20 | B: -11 | C: 85 | D: -5 | E: -21 | F: 64* | G: -7
> CC(C)NC(=O)N(C)C[C@H]1Oc2ccc(NC(=O)Nc3ccccc3)cc2CC(=O)N([C@H](C)CO)C[C@@H]1C
  A: . | B: . | C: . | D: -2 | E: . | F: . | G: .
> CC1CCN(CCCNC(=O)c2cc3c(s2)-c2ccccc2OC3)CC1
  A: 1 | B: -5 | C: 101 | D: 1 | E: -1 | F: 8 | G: .
> Cc1cccc2c1-c1sc(C(=O)NCCCN3CCC(C)CC3)cc1CO2
  A: 4 | B: 0 | C: 98 | D: -15 | E: 2 | F: 79* | G: 9
> C[C@@H]1CN([C@H](C)CO)C(=O)c2cc(C3=CCCCC3)cnc2O[C@@H]1CN(C)Cc1ccccn1
  A: . | B: . | C: . | D: -18 | E: . | F: . | G: .

Sorted by length of the SMILES (low to high): some entries from above.
Labels used below – A = p-CIP stab down; B = PKA-R2B activ; C = ABCB6 inh 2; D = UUG fidelity; E = PKA-R1A activ; F = Exocytosis inh; G = Exocytosis CP01
> O=C(c1ccc2ccccc2c1)C1CCCN(C(=O)c2cccnc2)C1 (stereo not drawn)
  A: -15 | B: 3 | C: 100 | D: -18 | E: -1 | F: 66* | G: -4
> C[C@@H]1CN([C@H](C)CO)C(=O)c2cc(C3=CCCCC3)cnc2O[C@@H]1CN(C)Cc1ccccn1
  A: . | B: . | C: . | D: -18 | E: . | F: . | G: .
> CC(C)NC(=O)N(C)C[C@H]1Oc2ccc(NC(=O)Nc3ccccc3)cc2CC(=O)N([C@H](C)CO)C[C@@H]1C
  A: . | B: . | C: . | D: -2 | E: . | F: . | G: .

(cont.)
Labels used below – A = p-CIP stab down; B = PKA-R2B activ; C = ABCB6 inh 2; D = UUG fidelity; E = PKA-R1A activ; F = Exocytosis inh; G = Exocytosis CP01
> C[C@@H]1CN([C@H](C)CO)C(=O)c2cc(NC(=O)NC3CCCCC3)ccc2O[C@@H](C)CCCCO[C@H]1CN(C)Cc1ccncc1
  A: . | B: . | C: . | D: -5 | E: . | F: . | G: .
> CCN(CC)Cc1ccc(NC(=O)c2sc3cc(Cl)ccc3c2Cl)cc1
  A: -4 | B: 1 | C: 98 | D: . | E: -3 | F: 81* | G: 24
> c1ccc(OCCN2CCNCC2)cc1
  A: . | B: 2 | C: 99 | D: -18 | E: 1 | F: -3 | G: .
> COc1cc(CN2CCN(C(c3ccccc3)c3ccccc3)CC2)cc(OC)c1OC
  A: -9 | B: -6 | C: 91 | D: 9 | E: -22 | F: 64* | G: -11
> c1ccc(OCCN2CCN(C(c3ccccc3)c3ccccc3)CC2)cc1
  A: -8 | B: -17 | C: 93 | D: 2 | E: 7 | F: 84* | G: -5
> Cc1ccc(-c2cnc3c(c2)C(=O)N([C@H](C)CO)C[C@H](C)[C@H](CN(C)C(=O)Cc2ccccc2)O3)cc1
  A: . | B: . | C: . | D: 10 | E: . | F: . | G: .
